Experimental data: PubChem BioAssay AID743266 (National Center for Advancing Translational Sciences (NCATS), 2014)
Only a part is listed here, and it is no random draw. Activity calls are given as the source filed them. Calls follow the shape of the dose curve; as a rule, active = well fitted activation curve with a large enough effect; inconclusive = small, poorly fitted or top-dose-only effect, or another doubt; inactive = no such curve, though single readings can be large or run the other way.
Also: nearly all actives have a fitted effect of over 55% in size.

By UniProt entry, the sequences of proteins in these tests, tags left out.
UniProt Q03431, whole entry: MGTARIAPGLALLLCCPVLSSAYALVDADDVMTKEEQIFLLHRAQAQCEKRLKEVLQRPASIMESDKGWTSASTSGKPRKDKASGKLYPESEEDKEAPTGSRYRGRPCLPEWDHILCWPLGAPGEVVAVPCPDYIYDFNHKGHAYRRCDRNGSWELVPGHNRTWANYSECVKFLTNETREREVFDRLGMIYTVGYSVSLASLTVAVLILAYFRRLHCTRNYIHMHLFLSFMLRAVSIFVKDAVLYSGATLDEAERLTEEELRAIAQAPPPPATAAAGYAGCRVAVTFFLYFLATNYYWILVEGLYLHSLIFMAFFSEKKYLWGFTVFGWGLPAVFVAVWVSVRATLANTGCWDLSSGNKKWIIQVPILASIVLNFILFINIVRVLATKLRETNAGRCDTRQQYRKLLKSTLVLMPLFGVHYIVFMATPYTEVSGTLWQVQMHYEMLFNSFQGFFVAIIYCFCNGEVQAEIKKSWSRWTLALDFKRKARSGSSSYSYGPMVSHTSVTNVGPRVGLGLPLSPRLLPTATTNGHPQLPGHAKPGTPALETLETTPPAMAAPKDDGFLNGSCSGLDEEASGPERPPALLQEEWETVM

The molecules below were run against Parathyroid hormone/parathyroid hormone-related peptide receptor (Homo sapiens) (UniProt Q03431) (assay: qHTS for PTHR1 Agonists: Primary Screen). Settings: HEK293 GP2 PTHR1 cells, GloSensor cAMP luminescence, 1 h; at 115 µM (top of the series).
CCC(=O)N(c1ccccc1)C1(COC)CCN(CCc2cccs2)CC1 was tested, and the outcome was “inactive”.
In the case of CCC(=O)N(c1ccccc1)C1(COC)CCN(CCn2nnn(CC)c2=O)CC1, the outcome is reported as “inactive”.
